Structures are written as SMILES. The entries are a selection whose mix differs from that of the whole data set. Activity calls are given as the source filed them.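 The calls were made as follows: active = inhibition above the mean of all tested compounds plus 3 SD (cut at about 70% in these data); inactive = the rest.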

By UniProt entry, the sequences of proteins in these tests, tags left out.
UniProt Q9Y5X4, whole entry: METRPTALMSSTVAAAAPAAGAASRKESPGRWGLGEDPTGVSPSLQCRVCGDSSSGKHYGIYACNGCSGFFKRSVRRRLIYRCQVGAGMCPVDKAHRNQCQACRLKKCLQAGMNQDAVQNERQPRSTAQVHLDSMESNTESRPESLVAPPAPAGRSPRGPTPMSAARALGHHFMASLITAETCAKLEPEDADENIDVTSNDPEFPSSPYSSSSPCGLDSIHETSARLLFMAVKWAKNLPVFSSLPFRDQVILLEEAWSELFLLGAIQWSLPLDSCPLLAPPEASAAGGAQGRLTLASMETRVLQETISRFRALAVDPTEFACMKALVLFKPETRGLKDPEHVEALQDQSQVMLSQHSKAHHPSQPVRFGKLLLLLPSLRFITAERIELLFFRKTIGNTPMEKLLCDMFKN

In this experiment the target is Photoreceptor-specific nuclear receptor (Homo sapiens) (UniProt Q9Y5X4). The experiment in a line: NR2E3 agonists in two-hybrid cells, primary screen, cell-based, luminescence, CHO-S, Gal4-NCOR/VP16-NR2E3 (AID 602229).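 Also: 0% = DMSO with NR2E3 transfected cells and 100% = cells lacking NR2E3 construct; higher means lower luciferase signal from less NR2E3 corepressor binding.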 The settings on record: luciferase, at 3.98 µM, stronger effect = higher value.
Take `O=[N+]([O-])c1cc([N+](=O)[O-])c(C(F)(F)F)c([N+](=O)[O-])c1O`: the inhibition of corepressor binding is inactive: -13.9%.

Consider `Cc1ccccc1NP(C)(=O)Nc1ccccc1C`, for which the inhibition of corepressor binding is inactive: -21.7%.

For the molecule `CP(=O)(Nc1ccc(SC(F)(F)F)cc1)Oc1ccc(F)cc1` (stereo not given), the inhibition of corepressor binding was inactive: 8.12%.

`CCOP(C)(=S)SCC(=O)NC(C)(CC)C(=O)O` (stereo not given): the inhibition of corepressor binding was inactive: -6.68%.

For `O=[N+]([O-])c1cc([N+](=O)[O-])c(-c2cnn(-c3ccccc3)c2)c([N+](=O)[O-])c1`, the inhibition of corepressor binding is inactive: 6.99%.

With `Cc1nc2ccc3ccccc3c2s1.O=[N+]([O-])c1cc([N+](=O)[O-])c(O)c([N+](=O)[O-])c1`, the inhibition of corepressor binding was inactive: -9.74%.

For `O=[N+]([O-])c1cc([N+](=O)[O-])c(-n2nnc3ccccc32)c([N+](=O)[O-])c1`, the inhibition of corepressor binding was inactive: 2.66%.

In the case of `CN(Cc1cccnc1)C(=O)COc1ccc(Cl)c(Cl)c1.O=[N+]([O-])c1cc([N+](=O)[O-])c(O)c([N+](=O)[O-])c1`, the inhibition of corepressor binding was inactive: -0.47%.

As for `CN1CCCCC1COC(=O)C1(O)c2ccccc2CCc2ccccc21` (stereo not given), the inhibition of corepressor binding is inactive: 7.27%.

As to `COc1ccccc1OP(C)(=O)Nc1c(C)cccc1C` (stereo not given), the inhibition of corepressor binding was inactive: -7.82%.

On to `CCCOc1ccc(NP(C)(=O)Oc2ccc(Cl)cc2)cc1` (stereo not given), for which the inhibition of corepressor binding is inactive: -5.71%.

Turning to `CP(=O)(Nc1ccc(SC(F)(F)F)cc1)Oc1ccccc1` (stereo not given), the inhibition of corepressor binding is inactive: 1.81%.

As for `COc1ccc(-c2ccccn2)cc1.O=[N+]([O-])c1cc([N+](=O)[O-])c(O)c([N+](=O)[O-])c1`, the inhibition of corepressor binding is inactive: -16.4%.

In the case of `CCOC(=O)C(CC)C1=NC(C)(C)Cc2ccccc21.O=[N+]([O-])c1cc([N+](=O)[O-])c(O)c([N+](=O)[O-])c1` (stereo not given), the inhibition of corepressor binding is inactive: 4.44%.

In the case of `CC1=C2N=C(C=C3N=C(C(C)=C4[N-][C@@](C)([C@@H]5N=C1[C@](C)(CCC(=O)NC[C@@H](C)OP(=O)([O-])O[C@H]1[C@@H](O)[C@@H](n6cnc7cc(C)c(C)cc76)O[C@@H]1CO)[C@H]5CC(N)=O)[C@@](C)(CC(N)=O)[C@@H]4CCC(N)=O)[C@@](C)(CC(N)=O)[C@@H]3CCC(N)=O)C(C)(C)[C@@H]2CCC(N)=O.[C-]#N.[Co+3]`, the inhibition of corepressor binding is inactive: -4.76%.

For the molecule `O=[N+]([O-])c1cc([N+](=O)[O-])c(Nc2nnnn2CCO)c([N+](=O)[O-])c1`, the inhibition of corepressor binding is inactive: -5.7%.

Turning to `CC1=NCCc2c1[nH]c1ccccc21.O=[N+]([O-])c1cc([N+](=O)[O-])c(O)c([N+](=O)[O-])c1`, the inhibition of corepressor binding is inactive: -14.4%.

With `O=C(O)c1cccc(Nc2c([N+](=O)[O-])cc([N+](=O)[O-])cc2[N+](=O)[O-])c1`, the inhibition of corepressor binding is inactive: -9.01%.

For `Cc1cc(C)cc(OP(C)(=O)Nc2ccccn2)c1` (stereo not given), the inhibition of corepressor binding is inactive: -5.36%.

In the case of `CP(=O)(Nc1cccc(Br)c1)Oc1ccccc1` (stereo not given), the inhibition of corepressor binding is inactive: -1.44%.

Turning to `Cc1ccc(C)c(NP(C)(=O)Oc2ccccc2)c1` (stereo not given), the inhibition of corepressor binding is inactive: -3.67%.

For the molecule `COc1ccccc1OP(C)(=O)Nc1cccc(Br)c1` (stereo not given), the inhibition of corepressor binding is inactive: -17.1%.

With `Cc1cc(C)cc(OP(C)(=O)Nc2ccc(C)cc2C)c1` (stereo not given), the inhibition of corepressor binding is inactive: -7.47%.

On to `CCOC(=O)c1ccc(NP(C)(=O)Oc2cc(C)cc(C)c2)cc1` (stereo not given), for which the inhibition of corepressor binding is inactive: -17.8%.

As for `COc1ccccc1-c1ccccn1.O=[N+]([O-])c1cc([N+](=O)[O-])c(O)c([N+](=O)[O-])c1`, the inhibition of corepressor binding was inactive: -15.8%.

Regarding `CCN(CC)CCCOC(=O)C(O)(c1ccccc1)c1ccccc1`, the inhibition of corepressor binding is inactive: -14%.

Regarding `CCOC(=O)c1ccc(NP(C)(=O)Oc2ccccc2)cc1` (stereo not given), the inhibition of corepressor binding was inactive: 1.23%.

In the case of `Cc1ccc(NP(C)(=O)Oc2ccccc2)c(C)c1` (stereo not given), the inhibition of corepressor binding is inactive: -9.72%.

As for `COc1ccccc1OP(C)(=O)Nc1ccc(C)cc1` (stereo not given), the inhibition of corepressor binding was inactive: 3.49%.

In the case of `COc1ccc(OP(C)(=O)Nc2cccc(F)c2)cc1` (stereo not given), the inhibition of corepressor binding is inactive: -9.62%.

Regarding `COc1ccccc1OP(C)(=O)Nc1cc(Cl)ccc1C` (stereo not given), the inhibition of corepressor binding was inactive: -15.3%.

Turning to `Cc1cc(C)cc(OP(C)(N)=O)c1` (stereo not given), the inhibition of corepressor binding is inactive: 4.97%.

Turning to `O=[N+]([O-])c1cc([N+](=O)[O-])c(Nc2cccnc2)c([N+](=O)[O-])c1`, the inhibition of corepressor binding is inactive: -32.6%.

As to `Cc1cccc(C)c1OP(C)(N)=O` (stereo not given), the inhibition of corepressor binding is inactive: 6.78%.

Consider `CC(C)(C)c1ccc(OP(C)(=O)Nc2ccc(SC(F)(F)F)cc2)cc1` (stereo not given), for which the inhibition of corepressor binding is inactive: 4.61%.

As for `O=[N+]([O-])c1ccc2c(c1)C=Nc1ccccc1O2`, the inhibition of corepressor binding was inactive: 15.4%.

In the case of `CP(=S)(Nn1cnnc1)Oc1ccccc1` (stereo not given), the inhibition of corepressor binding was inactive: -6.77%.

For `COc1ccccc1OP(C)(=O)Nc1ccccc1` (stereo not given), the inhibition of corepressor binding is inactive: 16.5%.

On to `CP(=O)(Nc1ccccc1Br)Oc1ccccc1` (stereo not given), for which the inhibition of corepressor binding was inactive: 20.9%.

Regarding `CCOP(C)(=S)SCC(=O)NC(C)C(=O)O` (stereo not given), the inhibition of corepressor binding is inactive: -14.1%.

Turning to `O=[N+]([O-])c1cc([N+](=O)[O-])c(O)c([N+](=O)[O-])c1.c1ccc(Oc2ccncc2)cc1`, the inhibition of corepressor binding is inactive: 5.76%.

`CCOC(=O)c1ccc(NP(C)(=O)Oc2ccc(OC)cc2)cc1` (stereo not given): the inhibition of corepressor binding is inactive: -1%.

For `CP(=O)(Nc1ccccn1)Oc1ccc(Cl)cc1` (stereo not given), the inhibition of corepressor binding is inactive: -5.56%.

For `CP(=O)(Oc1ccccc1)OC(c1ccccc1)C(F)(F)F` (stereo not given), the inhibition of corepressor binding is inactive: -12%.

In the case of `CP(=O)(Nc1ccc(SC(F)(F)F)cc1)Oc1ccc(Cl)cc1` (stereo not given), the inhibition of corepressor binding was inactive: -18.1%.

`Cc1ccc(Nc2c([N+](=O)[O-])cc([N+](=O)[O-])cc2[N+](=O)[O-])cc1`: the inhibition of corepressor binding was inactive: 10%.

For `Cc1cccc(C)c1OP(C)(=O)Nc1ccc(SC(F)(F)F)cc1` (stereo not given), the inhibition of corepressor binding was inactive: -18.9%.

Consider `Cc1cc(C)cc(OP(C)(=O)Nc2ccc(SC(F)(F)F)cc2)c1` (stereo not given), for which the inhibition of corepressor binding was inactive: 29.9%.

Take `CP(=O)(NC(=O)Nc1ccccc1)Oc1ccccc1` (stereo not given): the inhibition of corepressor binding is inactive: 6.75%.

As to `CCc1ccc(OP(C)(=O)N2CCN(c3ccc([N+](=O)[O-])cc3)CC2)cc1` (stereo not given), the inhibition of corepressor binding is inactive: 27.7%.

These data come from PubChem BioAssay AID602229 (The Scripps Research Institute Molecular Screening Center, 2012).
